Test results as given in patent publication US9872849B2, “Diterpenoid membranolide compounds having anti-leishmania activity and uses thereof” (UNIVERSITY OF SOUTH FLORIDA, priority 2014, dated 2018).

Tested on: L. donovani axenic amastigotes
Type: cell-based, Leishmania donovani
Procedure: Leishmaniasis efficacy was tested against L. donovani axenic amastigotes (amphotericin B, positive control=0.38 μM). Cytotoxicity was verified against Vero cells.

Substance	selectivity index (cytotoxicity/activity)
membranolide G	high selectivity index
membranolide H	high selectivity index
